The nature of this series: Evaluation of toxicity of the peptide, tail vein administration. The format is in vivo. The settings on record: female BALB/c mouse, 5 mg/kg. As to the method: The peptide of the present invention was administered to a mouse from its tail vein to thereby evaluate its toxicity. The mouse used was a female BALB/c mouse of 5 week old, and the peptide was used at a dose of 5 mg/kg.

In the case of `CC(C)C[C@H](NC(=O)[C@H](C)NC(=O)[C@H](CC(C)C)NC(=O)[C@H](CCC(N)=O)NC(=O)[C@H](Cc1c[nH]cn1)NC(=O)[C@@H](NC(=O)[C@H](Cc1c[nH]c2ccccc12)NC(=O)[C@H](CO)NC(=O)[C@H](CCCNC(=N)N)NC(=O)[C@@H]1CCCN1C(=O)[C@H](Cc1c[nH]cn1)NC(=O)[C@H](CC(C)C)NC(=O)[C@H](CCCNC(=N)N)NC(=O)[C@H](CC(C)C)NC(=O)[C@H](Cc1ccc(O)cc1)NC(=O)[C@H](CCCNC(=N)N)NC(=O)[C@H](CC(C)C)NC(=O)[C@H](CCCNC(=N)N)NC(=O)[C@H](CC(C)C)NC(=O)[C@H](C)NC(=O)[C@H](CC(C)C)NC(=O)[C@H](CCC(N)=O)NC(=O)[C@H](Cc1c[nH]cn1)NC(=O)[C@@H](NC(=O)[C@H](Cc1c[nH]c2ccccc12)NC(=O)[C@H](CO)NC(=O)[C@H](CCCNC(=N)N)NC(=O)[C@@H]1CCCN1C(=O)[C@H](Cc1c[nH]cn1)NC(=O)[C@H](CC(C)C)NC(=O)[C@H](CCCNC(=N)N)NC(=O)[C@H](CC(C)C)NC(=O)[C@H](Cc1ccc(O)cc1)NC(=O)[C@H](CCCNC(=N)N)NC(=O)[C@@H](N)[C@@H](C)O)C(C)C)C(C)C)C(=O)N[C@@H](CCCNC(=N)N)C(=O)N[C@@H](CO)C(=O)O` [SEQ ID NO: 16], the “toxicity after tail vein administration” value is recorded as “no significant effects”.

Source of the values: patent US20040171795A1, “Novel peptides” (priority 2000, published 2004).
